{"source": "patent US4198507A", "origin": "cited, not measured here", "details": "prior art; cited from earlier work"}
{"substance": "theobromine calcium salicylate", "values": [{"measurement": "water solubility (in words)", "result": "insoluble"}]}
